# According to patent US20020086860A1, “[1,4]Diazepino [6,7,1-jk] carbazoles and derivatives” (American Home Products Corporation, priority 2000, published 2002):
# Chains of the proteins cited; added tags and fusions are not shown. Residues count along the entry.
# UniProt P28335, 33-458: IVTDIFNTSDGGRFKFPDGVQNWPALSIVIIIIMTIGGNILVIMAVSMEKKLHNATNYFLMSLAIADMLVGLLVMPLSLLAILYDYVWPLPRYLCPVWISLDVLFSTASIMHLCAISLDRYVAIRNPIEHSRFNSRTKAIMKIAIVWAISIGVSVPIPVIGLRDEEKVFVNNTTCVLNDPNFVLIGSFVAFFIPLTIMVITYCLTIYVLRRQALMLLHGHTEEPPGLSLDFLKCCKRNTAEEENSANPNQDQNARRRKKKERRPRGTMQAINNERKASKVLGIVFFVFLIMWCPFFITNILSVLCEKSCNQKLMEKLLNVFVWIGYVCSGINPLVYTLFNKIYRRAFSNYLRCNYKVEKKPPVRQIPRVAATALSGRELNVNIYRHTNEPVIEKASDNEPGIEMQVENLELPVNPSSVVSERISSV
# Assays:
# [1] = target: T1, human 5-hydroxytryptamine2C (h5HT2C) receptor (Homo sapiens, UniProt P28335); test: 5HT2C Receptor Binding Test Procedure ([125I]DOI displacement, CHO cell membranes); settings: [125I]DOI binding, h5HT2C in CHO membranes; 95% confidence interval in brackets; read-out: Ki value and 95% confidence interval (reference compounds)
# T1 construct: expressed in transfected cells; host or cells: CHO (Chinese Hamster Ovary) cells; membrane preparation
# [2] = target: human 5-HT2C receptor (Homo sapiens, UniProt P28335); test: Stimulation of [3H] Inositol Monophosphate production by 5HT2C agonists in transfected CHO cells
smiles,measurement,setting,value
"Clc1cccc(N2CCNCC2)c1 [mCPP, meta-chlorophenylpiperazine, reference compound]",Ki,[1],6.5 nM
same,EC50,"[2]; read-out: EC50 (reference compounds), [3H]IP1 production, CHO cells with human 5-HT2C",46.8 nM
same,EMAX (relative to 5-HT),[2]; relative to maximally effective 5-HT (10 μM),60%
